Data published in patent US7405314B2 (priority 2004, dated 2008).

Key:
[1] = system: human acute myelocytic leukemia (AML) cell lines; test: 72 hour MTS assays, AML cell lines
[2] = system: human leukemia cell lines and leukemic cells obtained from patients with acute or chronic leukemia; test: Long-term (7 day) colony-forming assay, leukemic cells; details: semi-solid medium
leukemic cells = test: 72 hour MTS assay after pretreatment with BSO, DTT or NAC
NB4 APL cells = test: Maturation/differentiation of NB4 APL cells, CD11b (GMZ27); details: low doses, 48 hour incubation
HL60 cells = test: Cell cycle, propidium iodine staining (GMZ27); details: 24 and 48 hours
[3] = system: healthy donor peripheral blood mononuclear cells; test: Long-term colony forming assay, healthy donor cells (GMZ27)
HL60 AML cells = test: Induction of apoptosis by GMZ27
[4] = system: panel of 60 tumor cell lines; test: NIH sulforhodamine B assay, panel of 60 tumor cell lines; assay type: cell-based, human; details: 48 hours

Row | Molecule | IC50 ([1]; different human AML cell lines) [nM] | activity compared with arsenic trioxide ([1]; human AML cell lines) | anti-leukemic activity compared with arsenic trioxide [2] | sensitivity of leukemic cells after pretreatment with DTT or NAC (leukemic cells) | sensitivity of leukemic cells after pretreatment with buthionine sulfoximine (BSO) (leukemic cells) | cell differentiation/maturation (CD11b maturation marker) (NB4 APL cells) | effect on cell cycle progression (HL60 cells) | toxicity to normal cells compared with ATO [3] | induction of apoptosis compared with ATO (HL60 AML cells) | apoptotic pathway (HL60 AML cells; flow cytometry and Western blotting) | anticancer activity against tumor cell line panel [4]
1 | CCC[As](CCC)SCC(O)CO (centres unmarked) | 560 to 860 | higher than the activity of arsenic trioxide | significantly higher activity than arsenic trioxide | less sensitive | more sensitive | partially induce cell differentiation/maturation | no effect on the cell cycle progression | less toxic to normal cells than ATO | more potent in induction of apoptosis than ATO | activated the mitochondrial apoptotic pathway | –
2 | S-dimethylarsino-2-thiobenzoic acid | – | – | – | – | – | – | – | – | – | – | evidence of activity at low concentrations
